This is an account of results in PMC12257542, “A Radiolabeled Photoswitchable G Protein-Coupled Receptor Antagonist Enlightens Ligand Binding Kinetics Associated with Photoswitching” (Journal of the American Chemical Society, 2025).

Amino acid sequences for entries named in this document (tags omitted). A change or cut given only in a name is not applied to a line headed by its entry.
UniProt Q9Y5N1: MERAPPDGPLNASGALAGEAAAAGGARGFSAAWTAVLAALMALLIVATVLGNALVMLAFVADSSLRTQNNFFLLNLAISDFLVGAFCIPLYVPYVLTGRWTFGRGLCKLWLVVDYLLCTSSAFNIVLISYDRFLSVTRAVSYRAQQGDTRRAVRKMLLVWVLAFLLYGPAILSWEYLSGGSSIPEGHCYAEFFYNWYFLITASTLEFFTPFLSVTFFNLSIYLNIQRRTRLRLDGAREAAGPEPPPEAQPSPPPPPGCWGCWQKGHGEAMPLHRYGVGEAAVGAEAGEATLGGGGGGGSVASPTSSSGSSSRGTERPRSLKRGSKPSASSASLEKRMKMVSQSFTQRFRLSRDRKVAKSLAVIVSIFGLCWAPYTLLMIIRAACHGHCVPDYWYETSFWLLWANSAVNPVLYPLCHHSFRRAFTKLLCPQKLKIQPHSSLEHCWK

For assay [1], the target named is hH3R (Homo sapiens, UniProt Q9Y5N1). Kind of assay: Competition binding of non-labeled ligands with trans-[3H]3f on hH3R-expressing cell homogenates.
Assay [2] concerns the target H3R (Homo sapiens, UniProt Q9Y5N1). Kind of assay: [3H]NAMH competition radioligand binding on cell homogenates overexpressing H3R. Particulars: reference H3R ligands.

The term Ki denotes the dissociation constant of the complex between target and ligand, obtained from inhibition or displacement. Low values mean a stronger hold on the target, high ones a looser hold on the target.

Regarding `NC(=NCc1ccc(Cl)cc1)SCCCc1cnc[nH]1` [clobenpropit, reference compound], affinity in assay [1] was put at a Ki of 0.631 nM. Besides, in assay [2], the “pKi in competition with [3H]NAMH” value was 9.3 ± 0.1.
